Only a part is listed here, and it is no random draw. Some results for these compounds are left out of this collection, so the calls shown say nothing about other tests. Activity calls are given as the source filed them. Cut-off read from the data, not from the text of the source: active = inhibition above about 30%; inactive = the rest.
Each compound was assayed against OTU domain-containing protein 3 (Homo sapiens) (UniProt Q5T2D3) (assay: blocks human OTUD3 ubiquitin-rhodamine cleavage (AID 1645858)). Conditions: purified OTUD3, Ub-rhodamine fluorescence, 2 h; at 25 µM; hits give high values.

Amino acid sequences for entries named in this document (tags omitted).
UniProt Q5T2D3, whole entry: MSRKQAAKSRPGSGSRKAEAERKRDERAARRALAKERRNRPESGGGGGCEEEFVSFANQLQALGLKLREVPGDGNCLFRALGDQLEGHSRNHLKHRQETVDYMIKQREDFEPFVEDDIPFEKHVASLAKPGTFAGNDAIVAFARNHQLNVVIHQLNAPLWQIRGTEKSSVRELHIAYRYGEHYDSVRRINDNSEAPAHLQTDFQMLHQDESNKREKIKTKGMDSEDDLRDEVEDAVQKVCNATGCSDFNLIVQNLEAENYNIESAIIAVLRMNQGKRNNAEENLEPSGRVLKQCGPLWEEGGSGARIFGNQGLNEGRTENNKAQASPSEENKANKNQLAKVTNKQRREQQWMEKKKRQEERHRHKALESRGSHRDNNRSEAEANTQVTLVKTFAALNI

Structure (SMILES)	inhibition
Cc1c(C(=O)NCC2(N(C)C)CCCCC2)oc2ccccc12	inactive: -5.32%
O=C(NCC1(N2CCCCC2)CCCCC1)c1ccc2ccccc2c1	inactive: -4.53%
O=C(NCC1(N2CCOCC2)CCCCC1)c1ccccc1F	inactive: -1.12%
COc1ccc(C(=O)NCC2(N3CCOCC3)CCCCC2)cc1	inactive: -3.24%
O=C(NCC1(N2CCCCC2)CCCCC1)c1ccc2c(c1)OCCO2	inactive: 4.36%
Cc1c(C(=O)NCC2(N(C)C)CCCCC2)oc2ccc(F)cc12	inactive: 4.73%
COc1cccc(C(=O)NCC2(N3CCCCC3)CCCCC2)c1	inactive: -36.1%
